Test system: mouse model of NASH
Assay: mouse model of NASH and fibrosis induced by streptozocin and high fat diet
Format: in vivo, C59BL/6J mice
Details: OCA, MVC, alone or together
Experimental: We have utilized a well validated mice model in which the NASH and fibrosis was induced by sequential induction of diabetes mellitus and a high fat diet (14). On day 2, C59BL/6J mice were injected with streptozocin, then treated with high fat diet from week 4 until week 9. The intervention treatment started from week 5 until week 9. On week 9, these mice were euthanized. The intervention of the NASH and its subsequent disease processes was performed by administration of CCR5 antagonist maraviroc at dose of 45 mg/kg once daily orally and 30 mg/kg of OCA once daily, either alone or in combination for 4 wks.
NAS scores were determined according to the consensus by Nonalcoholic Steatohepatitis Clinical Research Network (13)
Fibrosis scores were determined according to the consensus by Nonalcoholic Steatohepatitis Clinical Research Network (13).

maraviroc [MVC]
liver enzyme AST (FIG. 7A): not observed
liver enzyme ALP (FIG. 8A): but not in mice treated with MVC

From patent publication US11160813B2, “Combination therapy for nonalcoholic steatohepatitis (NASH) and liver fibrosis” (Modunex Bio Corp., priority 2016, dated 2021)
